Earlier results on two compounds are cited in patent publication US20100022574A1, “Methods to Treat Pain Using an Alpha-2 Adrenergic Agonist and an Endothelin Antagonist” (EndogenX, Inc., priority 2008, published 2010).

Protein sequences, listed by entry. Tags and fused reporters are not part of them. Lines headed by an entry give the natural chain unless they say otherwise; changes in a name come on top.
UniProt P41145: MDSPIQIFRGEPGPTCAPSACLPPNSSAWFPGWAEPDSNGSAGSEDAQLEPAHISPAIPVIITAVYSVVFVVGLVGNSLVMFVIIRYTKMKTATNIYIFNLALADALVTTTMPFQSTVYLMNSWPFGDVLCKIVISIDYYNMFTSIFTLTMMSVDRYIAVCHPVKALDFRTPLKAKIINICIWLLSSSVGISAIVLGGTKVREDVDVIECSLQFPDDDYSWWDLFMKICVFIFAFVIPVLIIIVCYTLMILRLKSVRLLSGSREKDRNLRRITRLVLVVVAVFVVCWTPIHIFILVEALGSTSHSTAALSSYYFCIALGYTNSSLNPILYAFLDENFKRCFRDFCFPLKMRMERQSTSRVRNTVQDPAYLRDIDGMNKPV

The conditions of data set [1]: administered orally; cited from earlier work.
The target of data set [2] is K-opioid receptors (Homo sapiens, UniProt P41145). The following applies: read-out: Ki for K-opioid receptors; cited from earlier work.

Regarding “4-amino-N-(3,4-dimethyloxazol-5-yl)-benzenesulfonamide [Sulfisoxazole]”, the absorption and excretion result in data set [1] is “rapidly absorbed and rapidly excreted”. `COc1ccc2c3c1O[C@H]1C(=O)CC[C@@]4(O)[C@@H](C2)N(C)CC[C@]314.Cl` [Oxycodone, 4,5α-epoxy-14-hydroxy-3-methoxy-17-methylmorphinan-6-one hydrochloride]: the Ki in data set [2] is 677 nM.
